By UniProt entry, the sequences of proteins in these tests, tags left out. Residues count along the entry.
UniProt P01024, 23-1663: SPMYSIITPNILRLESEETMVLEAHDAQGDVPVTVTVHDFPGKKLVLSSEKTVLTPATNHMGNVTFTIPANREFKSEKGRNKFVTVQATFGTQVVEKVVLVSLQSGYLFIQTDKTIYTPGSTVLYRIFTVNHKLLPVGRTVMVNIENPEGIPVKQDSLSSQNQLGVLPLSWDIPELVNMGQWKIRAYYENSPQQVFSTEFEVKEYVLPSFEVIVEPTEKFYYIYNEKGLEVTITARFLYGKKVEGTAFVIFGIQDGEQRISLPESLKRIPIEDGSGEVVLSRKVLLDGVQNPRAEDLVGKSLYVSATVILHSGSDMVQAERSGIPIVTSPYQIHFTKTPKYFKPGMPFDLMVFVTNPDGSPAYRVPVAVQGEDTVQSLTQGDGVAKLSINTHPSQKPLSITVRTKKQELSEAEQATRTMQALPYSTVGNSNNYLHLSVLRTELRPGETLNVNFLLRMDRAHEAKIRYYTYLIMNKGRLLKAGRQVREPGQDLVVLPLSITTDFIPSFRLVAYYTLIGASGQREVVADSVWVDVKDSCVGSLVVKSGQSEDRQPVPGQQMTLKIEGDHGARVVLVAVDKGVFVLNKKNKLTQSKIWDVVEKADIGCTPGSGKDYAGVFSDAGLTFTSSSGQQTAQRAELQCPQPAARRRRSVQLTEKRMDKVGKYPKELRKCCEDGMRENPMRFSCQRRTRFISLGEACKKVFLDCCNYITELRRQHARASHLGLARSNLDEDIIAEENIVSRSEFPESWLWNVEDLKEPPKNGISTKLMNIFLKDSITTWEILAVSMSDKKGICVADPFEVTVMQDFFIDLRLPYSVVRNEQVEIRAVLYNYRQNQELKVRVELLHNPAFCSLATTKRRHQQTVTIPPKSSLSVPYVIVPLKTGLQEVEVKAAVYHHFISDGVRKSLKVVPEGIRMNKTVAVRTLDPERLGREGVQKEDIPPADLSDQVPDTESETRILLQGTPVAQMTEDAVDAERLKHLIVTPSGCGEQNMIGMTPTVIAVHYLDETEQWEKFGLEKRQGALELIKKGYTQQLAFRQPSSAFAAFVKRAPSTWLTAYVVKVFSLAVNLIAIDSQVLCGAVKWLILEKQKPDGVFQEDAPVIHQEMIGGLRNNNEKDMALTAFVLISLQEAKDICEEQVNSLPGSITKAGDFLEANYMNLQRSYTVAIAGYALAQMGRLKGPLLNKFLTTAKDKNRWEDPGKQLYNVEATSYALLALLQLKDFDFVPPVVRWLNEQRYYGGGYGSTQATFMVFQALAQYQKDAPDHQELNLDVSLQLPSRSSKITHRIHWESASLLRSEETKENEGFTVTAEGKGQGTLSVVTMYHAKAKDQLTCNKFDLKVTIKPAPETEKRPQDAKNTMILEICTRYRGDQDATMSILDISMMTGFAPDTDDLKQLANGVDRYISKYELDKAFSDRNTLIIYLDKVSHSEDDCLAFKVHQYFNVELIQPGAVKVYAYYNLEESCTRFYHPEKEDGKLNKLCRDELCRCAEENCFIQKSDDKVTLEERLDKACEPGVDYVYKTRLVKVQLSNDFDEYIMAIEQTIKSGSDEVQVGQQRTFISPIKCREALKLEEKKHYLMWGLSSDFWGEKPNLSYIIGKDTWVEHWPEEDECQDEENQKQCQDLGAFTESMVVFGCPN
UniProt P01026, 25-1663: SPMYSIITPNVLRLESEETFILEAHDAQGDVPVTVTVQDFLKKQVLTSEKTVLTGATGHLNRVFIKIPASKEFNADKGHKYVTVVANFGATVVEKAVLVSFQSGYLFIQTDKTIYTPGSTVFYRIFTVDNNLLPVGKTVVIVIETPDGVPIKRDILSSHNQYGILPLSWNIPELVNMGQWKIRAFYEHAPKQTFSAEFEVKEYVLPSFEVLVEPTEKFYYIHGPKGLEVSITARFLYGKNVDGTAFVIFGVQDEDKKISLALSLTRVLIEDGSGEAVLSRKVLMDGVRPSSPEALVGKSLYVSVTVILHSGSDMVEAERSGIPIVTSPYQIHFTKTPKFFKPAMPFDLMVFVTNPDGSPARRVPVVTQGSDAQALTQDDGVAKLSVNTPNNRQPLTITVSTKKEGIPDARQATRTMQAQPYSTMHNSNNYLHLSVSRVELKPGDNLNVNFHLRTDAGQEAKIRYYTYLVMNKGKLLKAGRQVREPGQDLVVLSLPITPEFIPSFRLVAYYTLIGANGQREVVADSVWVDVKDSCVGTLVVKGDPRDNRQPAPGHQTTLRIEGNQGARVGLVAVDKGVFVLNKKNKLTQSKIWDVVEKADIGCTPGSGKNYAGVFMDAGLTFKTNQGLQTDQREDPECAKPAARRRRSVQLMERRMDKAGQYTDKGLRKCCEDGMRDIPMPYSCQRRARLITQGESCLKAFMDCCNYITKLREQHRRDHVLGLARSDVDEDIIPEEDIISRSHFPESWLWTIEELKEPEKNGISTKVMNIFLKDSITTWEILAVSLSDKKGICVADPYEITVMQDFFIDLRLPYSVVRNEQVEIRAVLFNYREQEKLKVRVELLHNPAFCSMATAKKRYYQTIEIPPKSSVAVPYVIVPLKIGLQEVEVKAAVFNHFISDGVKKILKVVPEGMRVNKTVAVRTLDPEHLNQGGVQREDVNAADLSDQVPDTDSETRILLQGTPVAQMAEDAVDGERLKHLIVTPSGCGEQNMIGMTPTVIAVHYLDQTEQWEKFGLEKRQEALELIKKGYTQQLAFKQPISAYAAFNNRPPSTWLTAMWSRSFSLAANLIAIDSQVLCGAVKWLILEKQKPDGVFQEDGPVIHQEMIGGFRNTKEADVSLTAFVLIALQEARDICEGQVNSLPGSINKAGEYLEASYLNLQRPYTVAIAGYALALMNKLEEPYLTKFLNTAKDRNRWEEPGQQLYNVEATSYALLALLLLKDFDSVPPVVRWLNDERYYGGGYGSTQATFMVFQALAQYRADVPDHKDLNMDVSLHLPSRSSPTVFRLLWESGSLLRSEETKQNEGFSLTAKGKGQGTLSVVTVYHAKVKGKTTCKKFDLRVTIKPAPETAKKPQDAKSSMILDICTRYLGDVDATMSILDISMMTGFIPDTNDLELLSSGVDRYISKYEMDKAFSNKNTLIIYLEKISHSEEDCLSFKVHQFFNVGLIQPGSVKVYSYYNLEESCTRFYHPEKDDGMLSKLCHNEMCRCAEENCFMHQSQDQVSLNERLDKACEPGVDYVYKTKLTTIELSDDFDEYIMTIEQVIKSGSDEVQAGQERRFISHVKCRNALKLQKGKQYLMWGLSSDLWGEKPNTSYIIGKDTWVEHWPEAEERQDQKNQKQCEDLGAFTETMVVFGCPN

According to paper PMC10870435, “A novel complement C3 inhibitor CP40-KK protects against experimental pulmonary arterial hypertension via an inflammasome NLRP3 associated pathway” (Journal of Translational Medicine, 2024):

How the values were obtained:
Human complement C3 = molecular target: T1, Human complement C3 (Homo sapiens, UniProt P01024); test: SPR (LSPR) binding to immobilized human complement C3
T1 construct: purchased ProSpec PRO-2684

Rat complement C3 = molecular target: T2, Rat complement C3 (Rattus norvegicus, UniProt P01026); test: SPR (LSPR) binding to immobilized rat complement C3
T2 construct: purchased ProSpec PRO-2706

Kd (Human complement C3): 15.6 µM | Kd (Rat complement C3): 95.2 µM
Compound: CC[C@H](C)[C@H](N)C(=O)N[C@H]1CSSC[C@@H](C(=O)N[C@H](C(N)=O)[C@@H](C)O)NC(=O)[C@H](CCCN=C(N)N)NC(=O)[C@H](Cc2cnc[nH]2)NC(=O)[C@H](Cc2cnc[nH]2)NC(=O)CNC(=O)[C@H](Cc2c[nH]c3ccccc23)NC(=O)[C@H](CC(=O)O)NC(=O)[C@H](CCC(N)=O)NC(=O)[C@H](C(C)C)NC(=O)[C@H](C(C)C)NC1=O [compstatin]
